Only a part is listed here, and it is no random draw. Activity calls are given as the source filed them. No stated cut-off is given here; in the data, active means inhibition mostly above about 23% (no sharp cut-off); inactive means mostly below about 18%.

Protein sequences, listed by entry. Tags and fused reporters are not part of them.
UniProt P47898, whole entry, looked up: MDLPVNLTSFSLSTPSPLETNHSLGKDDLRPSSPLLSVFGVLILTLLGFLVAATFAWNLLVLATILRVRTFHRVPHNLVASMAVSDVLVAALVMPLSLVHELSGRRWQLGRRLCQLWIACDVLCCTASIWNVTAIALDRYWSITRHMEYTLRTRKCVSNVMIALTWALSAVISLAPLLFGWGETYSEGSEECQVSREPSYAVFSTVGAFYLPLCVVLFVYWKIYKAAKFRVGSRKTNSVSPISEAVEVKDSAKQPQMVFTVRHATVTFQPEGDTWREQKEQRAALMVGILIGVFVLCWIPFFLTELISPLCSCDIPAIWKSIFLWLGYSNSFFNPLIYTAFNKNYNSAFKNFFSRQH

The experiment addresses 5-hydroxytryptamine receptor 5A (Homo sapiens) (UniProt P47898). Kind of experiment: HTR5A inverse agonists in luminescence cell assay, primary screen, counter-screen for OPRM1-OPRD1 heterodimer inverse agonist project, full-deck HTS (AID 504634).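 Further: 0% = cells with DMSO and 100% = no-cell wells with DMSO.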 Particulars: HTR5A cell line, inverse agonism, at 9.3 µM, active compounds read high.
Turning to `CC(C)CSc1nc2ccccc2n1CC(N)=O`, the inhibition was inactive: -9.55%.

Regarding `C[C@H](O)[C@@H]1C(=O)N2CCc3ccc(N4CCOCC4)cc3[C@@H]2C[C@@H]1N(C)C(=O)Nc1ccccc1`, the inhibition is inactive: 2.15%.

For `Nc1ncnc2c1ncn2C1OC(CO)C(O)C1N` (centres undefined), the inhibition is inactive: 14.5%.

Regarding `O=C(Cn1c(SCC(=O)N2CCc3ccccc3C2)nc2ccccc21)NC1CCCC1`, the inhibition was inactive: -11.6%.

As to `Cn1c(=O)n(CC(=O)NCc2cccnc2)c2ccccc21`, the inhibition was inactive: 4.6%.

As for `CC1CCCCN1C(=O)CSc1nc2ccccc2n1CC(=O)N1CCc2ccccc21` (centres undefined), the inhibition is inactive: 10.9%.

As to `O=C(CCCCCNC(=O)N1CCn2c1nc1ccccc12)N[C@@H](Cc1ccccc1)C(=O)O`, the inhibition was inactive: 11.4%.

On to `Cn1c(=O)c2c(nc(NCc3ccccc3)n2CC(=O)NCc2ccccc2)n(C)c1=O`, for which the inhibition is inactive: -34.5%.

For the compound `O=C(Cn1cnc2ccccc21)Nc1cccc([N+](=O)[O-])c1`, the inhibition is inactive: -13.7%.

In the case of `Nc1cccc2ccc([As](=O)(O)O)cc12`, the inhibition is inactive: -1.75%.

In the case of `CCN(CC)CCn1c(=N)n(CCOc2ccccc2)c2ccccc21`, the inhibition is inactive: -13%.

For the compound `CCC(=O)N(c1ccccc1)C1CCCCC1`, the inhibition was inactive: 12.1%.

With `CCN(N=Nc1nonc1N)c1nonc1N`, the inhibition is inactive: 9.84%.

`CC(C)(C)NC(=O)Cn1c(SCC(=O)NC2CCCC2)nc2ccccc21`: the inhibition was inactive: -18.3%.

In the case of `CCN(CC)CCNC(=O)Cn1c(-c2ccccn2)nc2ccccc21`, the inhibition is inactive: 6.09%.

`Nc1nonc1-c1nc2ccccc2n1CC(=O)Nc1ccccc1`: the inhibition is inactive: -2.68%.

Turning to `CCC(=O)Nc1nnc(/C=C/c2ccc(OC)cc2)s1`, the inhibition was inactive: -0.75%.

Turning to `CC(=O)c1ccc(NC(=O)C2CC(=O)Nc3nc4ccccc4n32)cc1` (centres undefined), the inhibition was inactive: 9.92%.

For the compound `O=C(Nc1ccc2c(c1)nc1n2CCN(Cc2ccccc2)C1)c1cccs1`, the inhibition is inactive: -2.17%.

In the case of `O=C(CCC(=O)Nc1ccccc1)N/N=C/C=C/c1ccccc1`, the inhibition was inactive: 13.4%.

Consider `CC1CN(Cc2nc3c(c(=O)[nH]c(=O)n3C)n2CCN2CCOCC2)CC(C)O1` (centres undefined), for which the inhibition was inactive: 16.9%.

For the compound `Cn1c(=O)c2c(ncn2CC(N)=O)n(C)c1=O`, the inhibition was inactive: 12.8%.

Consider `O=C(Cn1c(-c2cncs2)nc2ccccc21)NCc1ccccc1`, for which the inhibition is inactive: 2.73%.

As to `COc1ccc(N2C(=O)CC(n3c(CCCCO)nc4ccccc43)C2=O)cc1` (centres undefined), the inhibition was inactive: -3.72%.

For `O=C(NCCn1c(C(F)(F)F)nc2ccccc21)[C@H]1CCCN1c1nc(CN2CCCCC2)cs1`, the inhibition is inactive: -26.3%.

As for `Cc1ccccc1NC(=O)Cn1cnc2c1c(=O)n(C)c(=O)n2C`, the inhibition was inactive: -1.96%.

For the compound `O=C(Cn1c(COc2ccccc2)nc2ccccc21)Nc1cc(Cl)ccc1Cl`, the inhibition is inactive: 8.86%.

Take `COc1ccc(CC(=O)N2CCC(Nc3nc4ccccc4n3Cc3ccc(F)cc3)CC2)cc1`: the inhibition is inactive: -19.6%.

As to `COc1ccc(CCNC(=O)Cn2c(-c3nonc3N)nc3ccccc32)cc1OC`, the inhibition is inactive: -1.7%.

With `CN(CC(=O)Nc1cccc(F)c1)C(=O)Cn1cnc2c1c(=O)n(C)c(=O)n2C`, the inhibition is inactive: 6.66%.

Consider `CC(C)NC(=O)Cn1c(SCC(=O)N2CCCCCC2)nc2ccccc21`, for which the inhibition was inactive: -21%.

As to `O=C(Cn1c(NCCO)nc2ccccc21)NCCc1ccccc1`, the inhibition is inactive: -1.94%.

For `Cc1ccc(/C=N/NC(=O)Cn2cnc3ccccc32)cc1`, the inhibition is inactive: 1.5%.

`Clc1ccc(Cl)c(NC2=NCC(CBr)S2)c1` (centres undefined): the inhibition is inactive: 13.3%.

On to `CN1CCCC(OC(=O)C(c2ccccc2)c2ccccc2)C1` (centres undefined), for which the inhibition was inactive: 21.9%.

Regarding `CCCCOC(=O)Cn1c(=N)n(CCN2CCOCC2)c2ccccc21`, the inhibition is inactive: 3.13%.

Turning to `COc1ccc(CNC(=O)CCCCCNC(=O)N2CCn3c2nc2ccccc23)cc1`, the inhibition is inactive: 5.12%.

Regarding `CCOc1cc(N2CCOCC2)c(OCC)cc1NC(=O)Cn1cnc2c(=O)n(C)c(=O)n(C)c21`, the inhibition is inactive: 10.2%.

Take `O=C1Cn2c(nc3ccccc32)N1c1cccc(C(F)(F)F)c1`: the inhibition is inactive: -8.51%.

With `COc1ccc(C(=O)CSc2nc3ccccc3n2CC(=O)NC(C)(C)C)cc1`, the inhibition is inactive: 1.97%.

Regarding `CCC(C)(C)n1nnnc1CN1CCC(n2c(C)nc3cc(C(F)(F)F)ccc32)CC1`, the inhibition is inactive: -14.7%.

On to `Cc1nc2cc(F)ccc2n1C1CCN(Cc2nnnn2CCc2ccccc2)CC1`, for which the inhibition is inactive: 14.8%.

As for `CN1CC[C@]2(CCN3CCc4c(oc5ccccc45)[C@@H]3C2)N(C)C1=O`, the inhibition is inactive: -30.8%.

Take `COc1ccccc1OP(=O)(Nc1ccc(C)cn1)Oc1ccccc1OC`: the inhibition is inactive: -11.3%.

Consider `CN1CCN(CCN2CCn3c2nc2ccccc23)CC1`, for which the inhibition is inactive: 2.82%.

`CC(O)c1nc2ccccc2n1CC(=O)N1CCN(c2ccccc2)CC1` (centres undefined): the inhibition is inactive: -0.58%.

As to `CCOCN(C(=O)Cn1c(C(C)O)nc2ccccc21)c1c(C)cccc1CC` (centres undefined), the inhibition was inactive: 8.19%.

In the case of `Cc1ccc(N/C(=N/P(=O)(N2CCOCC2)N2CCOCC2)N2CCOCC2)cc1`, the inhibition is inactive: 23.3%.

Regarding `O=C(Cn1cnc2c(NCc3ccccc3)ncnc21)NCc1ccc2c(c1)OCO2`, the inhibition is inactive: -8.76%.

Turning to `CC(CNC(=O)Cn1cnc2c(NCc3ccccc3)ncnc21)c1ccccc1` (centres undefined), the inhibition is inactive: -3.89%.

On to `O=C(CSc1nc2ccccc2n1CC(=O)N1CCCCC1)N1CCCCC1`, for which the inhibition is inactive: 23.8%.

Turning to `CN(C(=O)Cc1ccc(Cl)c(Cl)c1)[C@H]1CCCC[C@H]1N1CCCC1`, the inhibition was inactive: -11.6%.

In the case of `CCN(CC)CCn1c(NS(=O)(=O)c2ccc(C)cc2)nc2ccccc21`, the inhibition was inactive: -22.6%.

Regarding `CN(CC(=O)Nc1ccc(F)c(F)c1F)C(=O)Cn1cnc2c1c(=O)n(C)c(=O)n2C`, the inhibition was inactive: -1.81%.

Turning to `C[C@H](O)[C@@H]1C(=O)N2CCc3ccc(-c4ccccc4)cc3[C@@H]2C[C@@H]1N(C)C(=O)NC1CCCCC1`, the inhibition was inactive: 9.21%.

Regarding `NC(=O)c1cc([N+](=O)[O-])cc([N+](=O)[O-])c1N`, the inhibition is inactive: -3.38%.

Regarding `CSc1nc(N)nc2c1ncn2CC(=O)NCc1ccc2[nH]ccc2c1`, the inhibition was inactive: -11.8%.

As to `Cc1ccc2c(c1)C1CN(C)CCC1N2C(=O)c1ccc(Cl)c(S(=O)(=O)N2CCOCC2)c1` (centres undefined), the inhibition was inactive: -4.16%.

For the compound `O=C(Nc1ccccc1)N1CCC(n2c(=O)[nH]c3ccccc32)CC1`, the inhibition was inactive: -2.76%.

As for `CC1CCCN(C(=O)Cn2c(-c3nonc3N)nc3ccccc32)C1` (centres undefined), the inhibition is inactive: 7.92%.

For the compound `Nc1nonc1-c1nc2ccccc2n1CC(=O)N/N=C\c1ccc(-c2ccc(Cl)cc2)o1`, the inhibition was inactive: -27.4%.

Regarding `Cc1ccc(-c2csc(N3CCN(c4ccc5nc(-c6ccncc6)n(CCN6CCCCC6)c5c4)CC3)n2)cc1`, the inhibition is inactive: 5.28%.

Turning to `CCC(C(=O)NC1CCCCC1)n1c(SCc2ccc(F)cc2)nc2ccncc21` (centres undefined), the inhibition is inactive: -0.5%.

On to `CN(C)C(=O)Cn1c(SCC(=O)Nc2ccc3c(c2)OCO3)nc2ccccc21`, for which the inhibition was inactive: 4.75%.

As for `O=C1Cn2c(nc3ccccc32)N1c1ccccc1F`, the inhibition is inactive: 12.8%.

Turning to `N=c1n(CCCOc2ccc(F)cc2)c2ccccc2n1CC(N)=O`, the inhibition is inactive: 4.78%.

Regarding `COc1ccc(C)cc1S(=O)(=O)N1c2ccc(C)cc2C2CN(C)CCC21` (centres undefined), the inhibition is inactive: -7.05%.

Take `Cc1n[nH]c(C)c1CCC(=O)N/N=C/C=C/c1ccccc1`: the inhibition is inactive: 9.54%.

For `CCC(=O)Nc1ccc2c(c1)nc1n2CCN(CCOC)C1`, the inhibition was inactive: 0.18%.

Regarding `O=C(c1cccc(Cl)c1)N1CCn2c1nc1ccccc12`, the inhibition was inactive: 5.36%.

With `C=CCOC(=O)C1=C(C)N=C2SCCC(=O)N2C1/C=C/c1ccccc1OC` (centres undefined), the inhibition was inactive: 11.3%.

`CCCCNc1nc2ccccc2n1CC(=O)N1CCc2ccccc2C1`: the inhibition is inactive: 6.07%.

For the compound `S=C=Nc1cccc(C2(N3CCCCC3)CCCCC2)c1`, the inhibition is inactive: -0.18%.

Regarding `CC1CCCC(C)N1C(=O)Cn1c(SCC(=O)NCc2ccc3c(c2)OCO3)nc2ccccc21` (centres undefined), the inhibition is inactive: -22.9%.

For `O=C(Cn1c(-c2cscn2)nc2ccccc21)Nc1ccc(Cl)cc1`, the inhibition was inactive: -13.2%.

Take `Cn1c(=O)c2c(ncn2CC(=O)N2CCN(S(=O)(=O)c3ccc(F)cc3)CC2)n(C)c1=O`: the inhibition was inactive: 10.4%.

`CCCn1c(=O)[nH]c(=O)c2c1nc(-c1ccccc1)n2CCN1CCOCC1`: the inhibition is inactive: -9.17%.

On to `CCCCC(=O)N/N=C(C)/C=C/c1ccccc1F`, for which the inhibition is inactive: 5.37%.

Regarding `CCN(CC)CCn1c(/N=C/c2cc(Br)ccc2O)nc2ccccc21`, the inhibition is inactive: 19.2%.

Consider `CCOc1ccc(C(O)Cn2c(=N)n(CCN3CCCCC3)c3ccccc32)cc1` (centres undefined), for which the inhibition was inactive: 13.6%.

Consider `Cn1c(=O)c2ncn(CC(=O)NCCC3=CCCCC3)c2n(C)c1=O`, for which the inhibition was inactive: -16.6%.

Take `Nc1ncnc2c1ncn2CCN1CCCCC1`: the inhibition was inactive: 5.9%.

For `O=C(Cn1c(CO)nc2ccccc21)NCCc1ccc(F)cc1`, the inhibition is inactive: 9.92%.

In the case of `Cc1ccc(-c2csc(N3CCN(c4cc5c(cc4Cl)nc(-c4ccncc4)n5CCN4CCCCC4)CC3)n2)cc1`, the inhibition is inactive: 18.6%.

Turning to `CC(C)[C@H](NC(=O)N1CCn2c1nc1ccccc12)C(=O)NCC1CCCO1` (some centres undefined), the inhibition is inactive: -1.46%.

On to `O=C(NC(Sc1ccncn1)C(Cl)(Cl)Cl)c1ccccc1` (centres undefined), for which the inhibition was inactive: -16%.

Turning to `Cn1c(=O)c2c(ncn2CC(=O)Nc2cc(S(=O)(=O)N3CCCCC3)ccc2O)n(C)c1=O`, the inhibition is inactive: 12.2%.

Turning to `CCC(=O)N1c2ccc(S(=O)(=O)CCC(=O)N3CCn4c3nc3ccccc34)cc2CC1C` (centres undefined), the inhibition was inactive: -2.49%.

`Oc1ccccc1CNc1ccccn1`: the inhibition is inactive: -44.5%.

For `COCCN1CCn2c(nc3cc([N+](=O)[O-])ccc32)C1`, the inhibition was inactive: 15.8%.

`CCN(C(=O)Cn1cnc2c1c(=O)n(C)c(=O)n2C)C1CCS(=O)(=O)C1` (centres undefined): the inhibition was inactive: 9.22%.

Consider `CCN(C(=O)Cn1cnc2c1c(=O)n(C)c(=O)n2C)C1CCCCC1`, for which the inhibition was inactive: -4.86%.

With `CN(C)CCn1c(COc2ccccc2)nc2ccccc21`, the inhibition is inactive: 14.8%.

Take `Cc1ccccc1C(=O)Nc1cccc(NC(=O)Cn2cnc3c(=O)n(C)c(=O)n(C)c32)c1`: the inhibition is inactive: -5.55%.

Regarding `CC(C)CC(=O)NC(Sc1ccc(Cl)cc1)C(Cl)(Cl)Cl` (centres undefined), the inhibition is inactive: -5.82%.

In the case of `N=c1n(CCOc2ccccc2)c2ccccc2n1CCN1CCOCC1`, the inhibition was inactive: 9.25%.

As for `CSCC[C@H](NC(=O)N1CCn2c1nc1ccccc12)C(=O)NCc1ccc(C)cc1`, the inhibition is inactive: -24.8%.

Turning to `O=C(Nc1nc2ccccc2n1CCN1CCOCC1)c1ccc(Cl)cc1`, the inhibition is inactive: -4.87%.

In the case of `Nc1cc(N)c2nonc2c1[N+](=O)[O-]`, the inhibition is inactive: -23.9%.

`O=C(Cn1cnc2c(NCc3ccccc3)ncnc21)NCCN1CCOCC1`: the inhibition is inactive: -7.56%.

On to `CCCCCCNCCn1cnc2c(N)ncnc21`, for which the inhibition was inactive: 17%.

Turning to `O=C(Cn1cnc2c(OCc3ccccc3)ncnc21)NCCN1CCOCC1`, the inhibition was inactive: -11.7%.

In the case of `CCc1cccc(CC)c1NC(=O)Cn1c(-c2ccccc2Cl)nc2ccccc21`, the inhibition was inactive: 6.61%.

On to `COCCCNC(=O)CC1C(=O)N(Cc2ccccc2)C(C)c2nc3ccccc3n21` (centres undefined), for which the inhibition was inactive: 14.3%.

These data come from PubChem BioAssay AID504634 (The Scripps Research Institute Molecular Screening Center, 2011).
